Results reported in US6495673.

Key:
[1] = target: biotin-labeled … peptide (SEQ ID NO: 15); assay: competition ELISA over time with 1000-fold excess of unlabeled peptide
[2] = target: biotin-labeled … peptide (SEQ ID NO: 15); assay: biopanning, 1 round: capture through biotin-peptide on streptavidin beads, EDTA elution; against GST-fd phage (pFV7)
[3] = target: biotin-labeled … peptide (SEQ ID NO: 15); assay: biopanning, 2 rounds: capture through biotin-peptide on streptavidin beads, EDTA elution; against GST-fd phage (pFV7)

Substance	time for which the complex is stable [1] [h]	Enrichment [2] [fold]	Enrichment [3] [fold]
Calmodulin-tagged phage DN323 (calmodulin displayed as a gene III fusion on filamentous phage, from phagemid pDN323) (from UniProt P0DP23 2-149)	> 2	–	–
phage displaying glutathione S-transferase-calmodulin fusion (from vector pSD3) (from UniProt P0DP23 2-149)	–	> 40000	> 2e+07
